Experimental data published in US8293742B2, “Preferential vasoconstriction compositions and methods of use” (Alpha Synergy Development, Inc., priority 2008, dated 2012).

Experiments:
[1] = system: eyes of a patient with an ocular condition; conditions: brimonidine at 0.033%, left eye, 4 hrs after FIG. 4D
nasal congestion = conditions: 0.03% nasal spray repeated for one week, n of 1
rebound hyperemia = conditions: current concentration range for treating glaucoma of about 0.1% to 0.2%; cited from earlier work
[2] = system: postoperative hyperemia and conjunctival hemorrhage; conditions: Brimonidine 0.2%, used off label; cited from earlier work
[3] = system: postoperative hyperemia and conjunctival hemorrhage; experiment: Lasik prophylaxis (Example 2)
[4] = system: vasoconstriction, rebound hyperemia, intraocular pressure, corneal endothelial cell pump; conditions: concentrations of brimonidine of 0.10% and higher, FIG. 2

Question: With `Brc1c(N=C2NCCN2)ccc2nccnc12.O=C(O)C(O)C(O)C(=O)O` [brimonidine, 5-bromo-6-(2-imidazolidinylideneamino)quinoxaline L-tartrate] as the molecule, how does the “rebound hyperemia after third application” value [1] read?
Answer: without rebound hyperemia

Question: What about the rebound (nasal congestion) of the same molecule?
Answer: without rebound

Question: What about the “rebound hyperemia (primary or delayed onset vasodilation)” value (rebound hyperemia) of the same molecule?
Answer: significant rebound hyperemia

Question: What about the flap dislocation rates [2] of the same molecule?
Answer: 5-10%

Question: And the Flap dislocation rate ([3]; Lasik, Naphcon-A 50 patients (85 procedures), brimonidine 0.02% 10-20 minutes preoperatively, initial trial)?
Answer: under 1%

Question: What about the adverse cardiovascular events ([3]; brimonidine 0.02%) of the same molecule?
Answer: No adverse cardiovascular events occurred

Question: What about the allergic reactions ([3]; brimonidine 0.02%) of the same molecule?
Answer: No significant allergic reactions

Question: What about the Flap dislocation rate ([3]; brimonidine 0.02%, group expanded to over 500 eyes) of the same molecule?
Answer: under 1%

Question: What about the rebound [4] of the same molecule?
Answer: rebound virtually identical to tetrahydrozaline, naphazoline and oxymetazoline
